Ab-14 light chain CDR variants: yeast mating affinities

Binding partner: SARS-CoV-2 spike HR2 peptide, sequence PDVDLGDISGINAS.

The variants keep the heavy chain, the linker and the frameworks of Ab-14 (scFv order VH, a 15-residue (Gly4Ser)3 linker, VL).
VH: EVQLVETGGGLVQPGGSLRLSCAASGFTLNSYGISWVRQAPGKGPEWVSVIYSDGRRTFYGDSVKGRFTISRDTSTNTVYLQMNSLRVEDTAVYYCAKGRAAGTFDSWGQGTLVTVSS
VL: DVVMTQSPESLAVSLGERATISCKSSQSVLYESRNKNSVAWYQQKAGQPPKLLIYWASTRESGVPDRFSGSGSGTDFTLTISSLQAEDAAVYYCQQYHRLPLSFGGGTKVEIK

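Phage display of a naive human antibody library on the peptide gave the parent. Variants in AAYL50 differ from the parent at up to three CDR positions; double and triple changes were sampled at random. Affinity was read by AlphaSeq, a pooled yeast mating assay with surface-displayed partners. Mating (16 h, 30 °C) was followed by selection of diploids and sequencing of their barcodes. Scores were corrected for input abundance and mapped to Kd with protein pairs of known affinity run in the same pool. Mating was done three times.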

Variants are written as CDR1, CDR2 and CDR3 of the light chain (limits as in the source). Parent: KSSQSVLYESRNKNSVA, WASTRES, QQYHRLPLS.
All variants listed here change S28 of the VL, counted from its first residue.
Kd is apparent (estimated from mating counts) and averaged on the log scale over replicates with a signal. Smaller is tighter.
An entry "nd" has no value in the source: the pair was not observed among the diploids in any replicate. This suggests poor binding but is not conclusive.
Parent in this assay: reference entry 4.4 nM, copy in this library 48 nM.
Background: pairings of library AAYL50 with three empty control strains gave a value in 18% of cases (median 15 µM, 5th percentile 970 nM). Values in that range, when seen in few replicates, are hard to tell from nonspecific mating.

For KSSQNVLYESRNKNSVA / WASTCES / QQYHRLPFS, the assay gave 2.1 µM (2 of 3 replicates). The variant KSIQELLYESRNKNSVA / WASTRES / QQYHRLPLS gave 160 nM (3 of 3 replicates). The variant KSSQIVLRESRNKCSVA / WASTRES / QQYHRLPLS gave 12 µM (3 of 3 replicates). The variant KSSQEVLYESLNKNSVA / WASTRES / QQYHRLPLS showed nd (0 of 3 replicates). The variant KSSQNVLYESRNKNSVA / WASTRES / QQPHRLPLS gave nd (0 of 3 replicates). The variant KSCQEVLYESRNKNSVA / WASTRES / QQLHRLPLS gave 16 µM (2 of 3 replicates). The variant KSSQIVLYESRNKNSVA / WASTKES / QQVHRLPLS gave 480 nM (2 of 3 replicates). The variant KSSQQVLYESRNKNSVA / WSSTRES / QQYHRVPLS gave nd (0 of 3 replicates).

The variant KSSQLVLYESRNKNSVA / WASTRES / QFYHRLPLS gave 570 nM (3 of 3 replicates). With KSSQHVLYESRNKNSVA / TASTRES / QQYHRLPLH the result was 27 nM (3 of 3 replicates). With KSHQDVLYESRNKNSVA / WASTRES / QQYHRLCLS the result was 2.7 µM (3 of 3 replicates). For KSSQCVLYESRNKNSVA / WASTGES / QQYHRLPHS, the assay gave 1.1 mM (1 of 3 replicates). The variant KSSNAVLYESRNKNSVA / WASTRES / QQYHMLPLS showed 8.1 nM (3 of 3 replicates). The variant KSSQTVLYESTNKNSVA / WASTRES / QQYHRLGLS gave 6.6 nM (3 of 3 replicates). For KSSQDVLYESRNKDSVA / WASKRES / QQYHRLPLS, the assay gave 2.6 µM (1 of 3 replicates). For KSSQYVLYESREKNSVA / WASARES / QQYHRLPLS, the assay gave nd (0 of 3 replicates).

The variant KSSQQVLYESRNKNSVA / WASRRES / QQAHRLPLS gave nd (0 of 3 replicates). With KSSQCVLYESRNKNSVA / WASTRVS / QQYHRLPLR the result was 190 nM (3 of 3 replicates). The variant KSSQDVLQESRNKNSVA / WASTRES / QYYHRLPLS gave nd (0 of 3 replicates). The variant PSSQTVLYESRNKNSVA / WASTRES / QQYHRLPLH gave nd (0 of 3 replicates). The variant KSSQQVLYESRNKNWVA / WASTRES / QIYHRLPLS showed nd (0 of 3 replicates). For KSSQLVLYESRNCNSLA / WASTRES / QQYHRLPLS, the assay gave 1.6 µM (3 of 3 replicates). For KSSQIVLYESRNKNSVA / GASTRES / QQYHRLPWS, the assay gave 6.3 nM (3 of 3 replicates). The variant KSSQHVLYESRNKNHVA / WASTRES / QQYPRLPLS showed 510 µM (1 of 3 replicates).

For KSSQNVLYEMRNKNSVA / WASTRES / QQTHRLPLS, the assay gave 88 nM (3 of 3 replicates). The variant KSSQKVLYESRGKMSVA / WASTRES / QQYHRLPLS showed 64 nM (3 of 3 replicates). The variant KSSQIVYYESRNKNSVA / WASTRES / QQYHRLPLS showed 13 nM (3 of 3 replicates). With KSSQFVLYNSRNCNSVA / WASTRES / QQYHRLPLS the result was 62 nM (3 of 3 replicates). The variant KSSQPVLYESRNCNSVA / WASTRES / QQPHRLPLS showed 33 nM (3 of 3 replicates). For KSSQWVLYESRNKNSVG / WASTRES / QQYHRLPLS, the assay gave nd (0 of 3 replicates). The variant KSSQAVLDESRNFNSVA / WASTRES / QQYHRLPLS gave 3.8 nM (3 of 3 replicates). The variant KSSQHQLYESRNKNSVA / WASTRES / QQYHRLPLS showed 17 nM (3 of 3 replicates).

The variant KSSQRVLYESRNKNSVA / WASTREI / QQYHRLPLS gave 17 nM (3 of 3 replicates). With KSSQFVLYESRNKNSVA / WASTRKS / AQYHRLPLS the result was 12 µM (1 of 3 replicates). With KSSQTVLYESRNKTNVA / WASTRES / QQYHRLPLS the result was 450 nM (3 of 3 replicates). For KSSQIVLYEQRNKNSVA / WASTRES / QQYHVLPLS, the assay gave 420 nM (3 of 3 replicates). The variant KSSQKVLYESRNYNSVA / WASTTES / QQYHRLPLS showed nd (0 of 3 replicates). With KSSQRVLYEWKNKNSVA / WASTRES / QQYHRLPLS the result was 440 nM (1 of 3 replicates). With KSSQYVLYESRNKNSVA / WASTRES / QQYHRLPLS the result was 93 nM (3 of 3 replicates). The variant KSSQYVLYESRNKNSVA / PASTRES / QQYHRLPLS gave nd (0 of 3 replicates).

With KSSQPVLYESRNKNSVA / WASTDES / TQYHRLPLS the result was nd (0 of 3 replicates). The variant KSSQGVLYESRNKNSVH / WASTRES / QQYHRLPDS showed 3.5 µM (1 of 3 replicates). The variant KSSQRWLYESRNKNSVA / WASTRES / PQYHRLPLS gave nd (0 of 3 replicates). The variant KSSQEVLYEMRNKNSVA / WASTRES / QQYHRGPLS showed 160 nM (3 of 3 replicates). The variant KSSQKVLYESRNKNSVA / WASFRES / QQYHRLPLS gave 7.2 µM (1 of 3 replicates). The variant KSSQWVLYESRNKNSVV / WASTRES / QQYHRLPLS gave 110 µM (1 of 3 replicates). With KSSQTVLYESRNKNSVA / WASTRES / WQYHRLPLS the result was nd (0 of 3 replicates). The variant KSSLDVLYESRNKNSVA / WDSTRES / QQYHRLPLS showed nd (0 of 3 replicates).

For KSSQCVLYESRNKNSVA / WASTRES / QWYHRLPLS, the assay gave nd (0 of 3 replicates). For KSSQNVLYESRNSNSVA / WASTRFS / QQYHRLPLS, the assay gave 6.1 nM (3 of 3 replicates).

The closing 8 entries, repeated:

| CDR-L1 | CDR-L2 | CDR-L3 | apparent Kd | detected |
|---|---|---|---|---|
| KSSQRWLYESRNKNSVA | WASTRES | PQYHRLPLS | nd | 0/3 |
| KSSQEVLYEMRNKNSVA | WASTRES | QQYHRGPLS | 160 nM | 3/3 |
| KSSQKVLYESRNKNSVA | WASFRES | QQYHRLPLS | 7.2 µM | 1/3 |
| KSSQWVLYESRNKNSVV | WASTRES | QQYHRLPLS | 110 µM | 1/3 |
| KSSQTVLYESRNKNSVA | WASTRES | WQYHRLPLS | nd | 0/3 |
| KSSLDVLYESRNKNSVA | WDSTRES | QQYHRLPLS | nd | 0/3 |
| KSSQCVLYESRNKNSVA | WASTRES | QWYHRLPLS | nd | 0/3 |
| KSSQNVLYESRNSNSVA | WASTRFS | QQYHRLPLS | 6.1 nM | 3/3 |

Source: Engelhart et al. 2022 (doi:10.1038/s41597-022-01779-4), MIT Lincoln Laboratory and A-Alpha Bio; data file from the FLAb repository.